This assay deals with rat isolated heart. The assay can be described thus: Chronotropy and inotropy in Langendorff rat isolated heart. Particulars: intact preparations; 150 pMol.

As for `CNCC(O)c1ccc(O)c(O)c1.O=C(O)C(O)C(O)C(=O)O` (stereo not shown) [adrenaline, Adrenaline bitartrate, reference compound], the “maximal attainable beating rate” value came to 349±8 bpm.

The values above are taken from US5478807A, “Use of relaxin in the treatment of bradycardia” (Genentech, Inc., priority 1992, dated 1995).
